# Antibody variant affinities, Ab-14 heavy chain, assay B

Antigen: PDVDLGDISGINAS, a 14-residue peptide of the SARS-CoV-2 spike HR2 region.

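The parent was found by panning a naive human phage display library on the peptide. Designed CDR sequences, proposed from the first random library and measured here. Group labels follow the data file (Ctrl: baseline library sampled from a position-specific scoring matrix, with some repeated check sequences; Rand: our label for a block that the file lists under HC and that is probably the random mutants of the ten best first-round binders; En: ensemble of fine-tuned language models; GP: Gaussian process model; GPLM: also part of the Gaussian process libraries; HC: hill climbing; Gen: genetic algorithm; Gibbs: Gibbs sampling; a sequence that several methods proposed may carry one label only). The scFvs were displayed on barcoded MATa yeast, the peptide on MATalpha yeast. Pairs that bind mate more often; barcode pairs of the diploids are counted by sequencing. A regression on co-assayed BCL2-family reference pairs converts the normalised counts of each replicate to an apparent Kd. There are six technical replicates.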

Parent scFv Ab-14: VH joined to VL by a 15-residue (Gly4Ser)3 linker. Changes lie in the heavy chain CDRs alone.
VH: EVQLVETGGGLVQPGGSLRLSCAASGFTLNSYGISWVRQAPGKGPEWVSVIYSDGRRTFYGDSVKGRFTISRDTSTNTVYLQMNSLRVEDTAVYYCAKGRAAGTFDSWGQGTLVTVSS
VL: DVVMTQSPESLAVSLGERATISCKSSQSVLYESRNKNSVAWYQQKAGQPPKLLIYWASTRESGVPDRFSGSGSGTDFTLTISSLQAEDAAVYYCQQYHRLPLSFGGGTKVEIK

Variants are written as CDR1, CDR2 and CDR3 of the heavy chain (limits as in the source). Parent: GFTLNSYGIS, VIYSDGRRTFYGDSVK, GRAAGTFDS. Affinities are written as log10 Kd with Kd in nM; a lower number is a better binder. The mean shown is taken over the replicates in which the pair was detected. "no signal" marks a missing value. The strain was present, yet no cells mated with the target were sequenced in any replicate, which points to weak or no binding. A sequence measured in both rounds can read differently, since the two assays cover different ranges. Of ten entries with the parent sequence, four were seen in most replicates (averages 0.34 to 2.37), three in one and three in none, so single entries are noisy. Empty control strains, which show no peptide, gave a signal in 1% of pairings with all heavy chain designs; the median was 2.08 and 95% of these signals were weaker than 0.84. No background was subtracted. For each scFv, signals with the empty controls are counted beside the result. The authors' rule: three or more of the six replicates give a measured affinity, fewer mean a poor binder.

"mean, log10 nM",replicates with signal,signal with controls,CDR-H1,CDR-H2,CDR-H3,group
-1.36,6 of 6,0 of 18,GFDLDEYGIS,VIYADGRRTFYADSVK,GSNAGTFDV,En_HC
no signal,0 of 6,0 of 18,GFSLNSYGIS,VIYADMRRTFYGDSVK,GRAAGTFTS,GP_HC
1.51,1 of 6,0 of 18,GFTINSYGIS,VIYSDGYRTFYGDSVK,GRAAGTFDS,Ctrl
-0.43,6 of 6,0 of 18,GFDLNEYGIS,VIYADGMRTAYADSVK,GSNAGTFDQ,En_Gen
no signal,0 of 6,0 of 18,GFTLNSYGIS,VPYADGRRTFYGDSVK,GRAAGTNKS,Rand
no signal,0 of 6,0 of 18,GNDLQEYGIS,VIYADGMRNQYVQSVK,GMNAGVFVY,En_Gibbs
0.70,5 of 6,1 of 18,GFDLDEYGIS,VIYADGRRTFYQDSVK,GQNAGTFDT,En_HC
no signal,0 of 6,0 of 18,GLTLNSYGIS,VIYSDGRRTFYGDSVK,GRNAGTFDS,Ctrl
0.97,6 of 6,0 of 18,GFDLNSYGIS,VIYSDGRRTFYSDSVK,GRAGGTFDS,GPLM_HC
no signal,0 of 6,0 of 18,GFTMNEYGIS,VIYSDGRRTFYGDSVK,GRAAGTFTS,Ctrl
-0.24,6 of 6,0 of 18,GFDLEEYGIS,VIYADGRRTFYTDSVK,GENAGTFDV,En_HC
-0.24,6 of 6,1 of 18,GFSLNEYGIS,VIYADGRRTFYGDSVK,GYAAGTFDS,GP_HC
no signal,0 of 6,0 of 18,GRTLDSYGIS,VIYSDGRRTFYGDSVK,GRIAGTMDM,Ctrl
2.09,1 of 6,1 of 18,GFTLNSYGIS,VIYSDGRRTFYGDSVK,GDAVGTFDL,Ctrl
-0.24,6 of 6,1 of 18,GFDLNEYGIS,VIYADGMRTAYADDVK,GENAGTFDQ,En_Gen
-0.99,6 of 6,1 of 18,GFDLNEYGIS,VIYADGMRTAYADSVK,GGVAGTFDL,En_Gen
-0.41,6 of 6,0 of 18,GFDLDEYGIS,VIYADGRRTAYTDSVK,GGNAGTFDV,En_HC
0.19,6 of 6,0 of 18,GFSLNSYGIS,VIYSDGRRTFYADDVK,GQAAGTFDS,GPLM_Gen
no signal,0 of 6,0 of 18,GFALNDYGIS,VIYSDGRRTFYIDSVK,GRLAGTFDS,GP_HC
0.14,6 of 6,0 of 18,GFELNEYGIS,VIYSDGRRTFYGDSVK,GRSAGTFDT,GP_Gibbs
0.43,2 of 6,1 of 18,GFDLNEYGIS,VIYADGRRTFYTDSVK,GEFAGTFDA,En_HC
no signal,0 of 6,0 of 18,GFSLNEYGIS,VIYSDGRRTFYGDSVK,GRAAVTFDG,GP_HC
no signal,0 of 6,1 of 18,GFDLNSYGIS,VIYSDGRRTFYGDSVK,GRTAGAFKS,GP_HC
-0.03,6 of 6,2 of 18,GFSLNSYGIS,VIYSDGRRTFYADDVK,GVNAGTFDS,GP_Gibbs
0.36,6 of 6,0 of 18,GFELDSYGIS,VIYSDGRRTFYHDSVK,GRTAGTFDS,GP_Gibbs
1.66,1 of 6,0 of 18,GFNLDEYGIS,VIYADGRRTSYRDKFK,GAQNFSVMM,En_Gibbs
1.61,1 of 6,0 of 18,GFDLGEYGIS,VIYADGRRFSYKDAVK,GVVEGMLDI,En_Gibbs
0.10,6 of 6,0 of 18,GFTLNSYGIS,VIYADGRRTFYGDSVK,GRAAGTFAS,GP_HC
1.21,1 of 6,0 of 18,GFDLNSYGIS,VIYSDGRRTFYGDSVK,GRTAGTFDC,GPLM_Gibbs
1.62,6 of 6,1 of 18,GFTLNSYGIS,VIYSDGMRTAYGDDYK,GRAAGTFDS,Ctrl
-0.39,6 of 6,0 of 18,GFDLNEYGIS,VIYADGIRTFYADSVK,GNEAGTFDV,En_HC
1.81,6 of 6,0 of 18,GFHLNSYGIS,VIYSDGRRSFYADSVK,GRTAGTFDS,GPLM_Gen
1.33,1 of 6,0 of 18,KFDLNSYGIS,VIYSDGRRTFYGDSVK,GQAAGTFDS,GP_Gen
no signal,0 of 6,0 of 18,EFTLNSYGIS,VIYSKQRRTFYSDSPK,GRAGWTFDS,Rand
1.48,6 of 6,1 of 18,GFHLNSYGIS,VIYSDGMRTFYKDSVK,GRTAGTFDS,GP_Gibbs
0.74,5 of 6,0 of 18,GFTLESYGIS,VIYSDGRRTFYTDSVK,GQAAGTFDS,GP_HC
1.14,6 of 6,0 of 18,GFDLNSYGIS,VIYSDGRRTFYCDSVK,GRQAGTFDS,GPLM_Gibbs
no signal,0 of 6,0 of 18,GFTLNDYGIS,VIYSDGRRTFMGDSVK,GRTAVTFDS,Ctrl
1.15,6 of 6,0 of 18,GFDLNSYGIS,VIYSDGRRTFYGDSVK,GKTAGTFDQ,GPLM_Gibbs
1.38,5 of 6,0 of 18,GFTLNSYGVS,VIYSDGRRTFYDDSVK,GRAAGTFDS,Ctrl
2.75,2 of 6,1 of 18,GFPLNSYGIS,VIYSDGRRTFYGDDVK,GMAAGTFDS,Ctrl
0.32,6 of 6,1 of 18,GFDLNEYGIS,VIYADGVRTFYTDSVK,GNAAGTFDV,En_HC
no signal,0 of 6,0 of 18,GFTLNEYGIS,VIYSDGRRTFYGDSVK,GRAAVTFDW,GPLM_HC
1.05,2 of 6,0 of 18,GFTLDQYGIS,VIYSDGRRTFYIDSVK,GRAAGTFDS,GPLM_HC
-0.76,6 of 6,0 of 18,GFDLNEYGIS,VIYADGRRTFYADSVK,GKAAGTFDM,En_HC
no signal,0 of 6,0 of 18,GFQIDEYGIS,VIYADGMRSAYKNSVK,NGMNVSGIV,En_Gibbs
-0.15,6 of 6,2 of 18,GFDLNEYGIS,VIYADGVRSAYADSVK,GNVAGTFDI,En_Gen
0.28,6 of 6,0 of 18,GFTLNSYGIS,VIYSDGKRTFYGDSVK,GREAGTFDT,GPLM_Gen
0.70,6 of 6,2 of 18,GFTLNSYGIS,VIYSDGRRTFYADSVK,GRMAGTFDT,GPLM_Gen
0.31,6 of 6,0 of 18,GFSLNEYGIS,VIYSDGRRTFYGDSVK,GHAAGTFDS,GPLM_Gen
-0.96,6 of 6,0 of 18,GFDLNEYGIS,VIYADGRRTAYLNSVK,GEAAGTFDV,En_HC
-0.65,6 of 6,0 of 18,GFDLNEYGIS,VIYADGRRTAYDDSVK,GQVAGTFDN,En_HC
2.37,4 of 6,0 of 18,GKKLDEYGIS,VIYADGKRKFYSNSVK,GGKAGGTTV,En_Gibbs
0.12,6 of 6,0 of 18,GFDLNEYGIS,VIYADGMRTVYADSVK,GETAGTFDL,En_Gen
no signal,0 of 6,0 of 18,CFTLNSYGIS,VIYSDGRTTFYGWSVK,GRAALTFSS,Rand
1.78,5 of 6,0 of 18,GFTLNSYGIS,VIYSDGRRTFYHDSVK,GQAAGTFDS,Ctrl
2.16,5 of 6,1 of 18,GFDLEDYGIS,VIYADGRRTQYADSVK,GENAGTFDL,En_HC
0.73,6 of 6,0 of 18,GFDLNEYGIS,VIYADGMRTHYTDSVK,GNEAGTFDQ,En_HC
no signal,0 of 6,0 of 18,GFTLNEYGIS,VIYSDGRRTFYTDSVK,GRYAGTFWS,GP_HC
no signal,0 of 6,1 of 18,GFTLNRYGIS,VIYSDGRRTFYGDSVK,GRAAGTFDS,Ctrl
0.94,6 of 6,1 of 18,GFDLNSYGIS,VIYSDGRRTFYGDSVK,GWEAGTFDS,GPLM_Gibbs
no signal,0 of 6,0 of 18,GFTLNDYGIS,VKYSDGLRTQYIDSQK,GRAAGTFDS,Rand
2.09,1 of 6,0 of 18,KNTLNSYGIS,VIYSDGRRTFYGDSVK,GRAAGTFDS,Ctrl
-0.51,6 of 6,0 of 18,GFDLNEYGIS,VIYADGRRTAYKDSVK,GTNGGTFDV,En_HC
-0.61,6 of 6,0 of 18,GFDLNEYGIS,VIYADGRRTFYSDSVK,GGNAGTFDI,En_HC
0.54,6 of 6,0 of 18,GFTIKEYGYS,VMYSDGRRTFYGDSVK,GQAAGTFDS,Ctrl
0.99,5 of 6,0 of 18,GFELNEYGIS,VIYSDGRRTFYGDSVK,GHAAGTFDS,GP_Gen
no signal,0 of 6,0 of 18,GFDLNSYGIS,VIYSDGRRTFYGDSVK,GRAADKFDS,GPLM_HC
no signal,0 of 6,1 of 18,GFGLNSYGIS,VIYSDGRRTFYRDSVK,GRAAGTFEV,Ctrl
no signal,0 of 6,0 of 18,GFTLNSYGIS,VIYSDGMRTFYGDSVK,GRASGTFDS,Ctrl
no signal,0 of 6,0 of 18,GFDLQEYGIS,VIYSDGVREAYTNSFK,GQIAGTIDL,En_Gibbs
0.64,6 of 6,2 of 18,WFDLNSYGIS,VIYSDGRRTFYGDSVK,GRTAGTFDS,GP_Gen
-0.11,6 of 6,0 of 18,GFDLNSYGIS,VIYSDGRRTFYGDDVK,GKTAGTFDA,GP_Gibbs
-1.03,6 of 6,1 of 18,GFDLNEYGIS,VIYADGVRKAYADSVK,GEVAGTFDT,En_Gen

The closing 8 entries, repeated:

CDR-H1	CDR-H2	CDR-H3	group	mean, log10 nM	replicates with signal	signal with controls
GFELNEYGIS	VIYSDGRRTFYGDSVK	GHAAGTFDS	GP_Gen	0.99	5 of 6	0 of 18
GFDLNSYGIS	VIYSDGRRTFYGDSVK	GRAADKFDS	GPLM_HC	no signal	0 of 6	0 of 18
GFGLNSYGIS	VIYSDGRRTFYRDSVK	GRAAGTFEV	Ctrl	no signal	0 of 6	1 of 18
GFTLNSYGIS	VIYSDGMRTFYGDSVK	GRASGTFDS	Ctrl	no signal	0 of 6	0 of 18
GFDLQEYGIS	VIYSDGVREAYTNSFK	GQIAGTIDL	En_Gibbs	no signal	0 of 6	0 of 18
WFDLNSYGIS	VIYSDGRRTFYGDSVK	GRTAGTFDS	GP_Gen	0.64	6 of 6	2 of 18
GFDLNSYGIS	VIYSDGRRTFYGDDVK	GKTAGTFDA	GP_Gibbs	-0.11	6 of 6	0 of 18
GFDLNEYGIS	VIYADGVRKAYADSVK	GEVAGTFDT	En_Gen	-1.03	6 of 6	1 of 18

From the AlphaSeq antibody data of Li et al. 2023 (doi:10.1038/s41467-023-39022-2), copy in the FLAb collection.